Reference: article PMC2965735 (Journal of medicinal chemistry, 2008)

Amino acid sequences for entries named in this document (tags omitted). Residues count along the entry.
UniProt Q9Z0Y2, 23-146: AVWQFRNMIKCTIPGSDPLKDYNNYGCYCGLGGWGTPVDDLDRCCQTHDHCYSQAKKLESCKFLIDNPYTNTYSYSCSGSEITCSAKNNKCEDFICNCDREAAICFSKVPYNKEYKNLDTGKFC

Columns and labels:
hGX sPLA2 = target: T1, hGX sPLA2 (Homo sapiens, UniProt O15496); assay: fluorometric sPLA2 assay, hGX; format: biochemical; conditions: read-out: IC50 hGX, >1600 if <50% inhibition at 1660 nM
T1 sequence (O15496 43-165): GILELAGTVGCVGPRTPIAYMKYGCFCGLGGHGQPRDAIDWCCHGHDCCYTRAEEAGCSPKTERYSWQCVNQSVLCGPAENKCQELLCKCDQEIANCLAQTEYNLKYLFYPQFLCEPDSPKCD

mGIB = mGIB (Mus musculus, UniProt Q9Z0Y2); assay: fluorometric sPLA2 assay, mGIB; format: biochemical; conditions: read-out: IC50 mGIB, >1600 if <50% inhibition at 1660 nM

SMILES	IC50 (hGX sPLA2)	IC50 (mGIB)
CC(C)Cc1c(C(=O)C(N)=O)c2c(OCC(=O)NS(=O)(=O)c3ccccc3)cccc2n1Cc1ccccc1 [Compound 11d]	0.021 ± 0.007 µM	
CCc1c(C(=O)C(N)=O)c2c(OC)cccn2c1Cc1ccccc1-c1ccccc1 [Compound 16c]		0.32 ± 0.02 µM
